According to PubChem BioAssay AID2300 (The Scripps Research Institute Molecular Screening Center, 2010):
The list shows a part of the results, in another mix than the full data. Some salts and complexes are drawn in separate pieces, as the source files them; their charges need not balance. Activity calls are given as the source filed them.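 Rule for the calls: active = percent inhibition above the cutoff of mean plus 3 SD of all tested compounds, set per screening campaign (cut at about 20% in these data); inactive = the rest.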

Amino acid sequences for entries named in this document (tags omitted).
UniProt Q9Y5X4, whole entry: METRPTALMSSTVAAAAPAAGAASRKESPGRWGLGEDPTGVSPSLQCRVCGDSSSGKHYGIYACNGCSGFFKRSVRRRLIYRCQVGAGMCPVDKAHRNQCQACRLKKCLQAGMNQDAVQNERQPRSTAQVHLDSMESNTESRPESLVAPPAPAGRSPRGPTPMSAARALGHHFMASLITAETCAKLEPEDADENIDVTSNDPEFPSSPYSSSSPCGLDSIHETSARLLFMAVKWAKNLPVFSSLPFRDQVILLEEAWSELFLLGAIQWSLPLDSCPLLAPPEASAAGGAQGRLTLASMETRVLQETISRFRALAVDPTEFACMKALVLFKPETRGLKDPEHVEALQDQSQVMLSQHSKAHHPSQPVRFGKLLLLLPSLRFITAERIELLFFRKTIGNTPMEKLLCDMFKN

Each compound was assayed against Photoreceptor-specific nuclear receptor (Homo sapiens) (UniProt Q9Y5X4) (assay: inhibitors of NR2E3-RetCOR corepressor binding, primary screen, NR2E3 agonist project, biochemical, TR-FRET, GST-NR2E3, biotin-RetCOR (AID 2300;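 note: 0% = DMSO wells and 100% = biotin wells as full block of FRET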)). Details: 1536-well, at 4.78 µM, hits give high values.
Summary of the method: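 Format: 1536-well format; test system: GST-NR2E3 and biotin-RetCOR proteins; read-out basis: percent inhibition of TR-FRET ratio; timing: 5 h incubation at 4 °C; detection: time-resolved FRET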
In the case of `CN(C)C(=O)c1c([N+](=O)[O-])cc([N+](=O)[O-])cc1[N+](=O)[O-]`, the inhibition of corepressor binding is reported as inactive: -0.19%. For `CP(=O)(Nc1ccc(Cl)cc1)Oc1ccc(F)cc1` (stereo not drawn), the inhibition of corepressor binding was inactive: 0.7%. `CC(C)(C)c1ccc(OP(C)(=O)O)cc1` was tested, and the inhibition of corepressor binding was inactive: 3.39%. For `COc1ccccc1OP(C)(=O)Nc1ccccc1Br` (stereo not drawn), the inhibition of corepressor binding was inactive: -1.46%. For `CCc1ccc(OP(C)(=O)Nc2cccnc2)cc1` (stereo not drawn), the inhibition of corepressor binding was inactive: 0.26%. `CP(=O)(Oc1ccccc1)N1CCOC1=O` (stereo not drawn) was tested, and the inhibition of corepressor binding was inactive: 0.07%. With `O=C(OCCCN1CCCC1)C(O)(c1ccccc1)C1CCCCC1` (stereo not drawn) the inhibition of corepressor binding was inactive: -2.2%. With `COc1ccccc1OP(C)(=O)Nc1c(C)n(C)n(-c2ccccc2)c1=O` (stereo not drawn) the inhibition of corepressor binding was inactive: 2.42%. With `COc1ccc(OP(C)(=O)Nc2ccc(Br)cc2)cc1` (stereo not drawn) the inhibition of corepressor binding was inactive: -1.75%. With `CCN(CC)CC(O)COC(=O)C(O)(c1ccccc1)C1CCCCC1` (stereo not drawn) the inhibition of corepressor binding was inactive: 2.94%. In the case of `CP(=O)(OC12CC3CC(CC(C3)C1)C2)OC12CC3CC(CC(C3)C1)C2`, the inhibition of corepressor binding is reported as inactive: 0.93%. In the case of `CCOC(=O)c1ccc(NP(C)(=O)Oc2ccc(Cl)cc2)cc1` (stereo not drawn), the inhibition of corepressor binding is reported as inactive: 2.09%. With `Nc1ccc2c(ccc3cccnc32)n1.O=[N+]([O-])c1cc([N+](=O)[O-])c(O)c([N+](=O)[O-])c1` the inhibition of corepressor binding was inactive: 3.95%. With `CP(=O)(OCCOc1ccccc1)OCCOc1ccccc1` the inhibition of corepressor binding was inactive: 0%. In the case of `CP(=O)(Nc1ccc(Cl)cc1Cl)Oc1ccccc1` (stereo not drawn), the inhibition of corepressor binding is reported as inactive: 3.06%. In the case of `Cc1nc2ccc3ccccc3c2o1.O=[N+]([O-])c1cc([N+](=O)[O-])c(O)c([N+](=O)[O-])c1`, the inhibition of corepressor binding is reported as inactive: 2.4%. `COc1ccc(OP(C)(=O)Nc2ccccc2Br)cc1` (stereo not drawn) was tested, and the inhibition of corepressor binding was inactive: 5.5%. For `COc1ccccc1OP(C)(=O)Nc1ccc(C)c(C)c1` (stereo not drawn), the inhibition of corepressor binding was inactive: 3.67%. In the case of `Cc1cc(C)cc(OP(C)(=O)Nc2cccc(C(F)(F)F)c2)c1` (stereo not drawn), the inhibition of corepressor binding is reported as inactive: 0.2%. In the case of `CCc1ccc(OP(C)(=O)O)cc1`, the inhibition of corepressor binding is reported as inactive: 1.99%. For `COc1ccccc1OP(C)(=O)Nc1ccc(C)cc1C` (stereo not drawn), the inhibition of corepressor binding was inactive: -0.51%. For `CP(=O)(Nc1ccccn1)Oc1ccccc1` (stereo not drawn), the inhibition of corepressor binding was inactive: -4.9%. With `O=[N+]([O-])c1cc([N+](=O)[O-])c(Nc2ccccn2)c([N+](=O)[O-])c1` the inhibition of corepressor binding was inactive: 4.9%. With `Cc1c(NP(C)(=O)Oc2ccc(C(C)C)cc2)c(=O)n(-c2ccccc2)n1C` (stereo not drawn) the inhibition of corepressor binding was inactive: 1.26%. In the case of `CN(C)CCOC(=O)C(O)(c1ccccc1)C1CCCC1` (stereo not drawn), the inhibition of corepressor binding is reported as inactive: -0.59%. With `COc1ccc(OP(C)(=O)Nc2ccccn2)cc1` (stereo not drawn) the inhibition of corepressor binding was inactive: -3.51%. `COc1ccccc1OP(C)(=O)Nc1ccc(Br)cc1` (stereo not drawn) was tested, and the inhibition of corepressor binding was inactive: 1.24%. For `COc1ccc2c(c1O)-c1c(O)c(OC)cc3c1[C@H](C2)[N+](C)(C)CC3.O=[N+]([O-])c1cc([N+](=O)[O-])c([O-])c([N+](=O)[O-])c1[O-]`, the inhibition of corepressor binding was inactive: -3.48%. With `O=C(OCCN1CCN(CCOCc2ccccc2)CC1)C(O)(c1ccccc1)c1ccccc1` the inhibition of corepressor binding was inactive: -1.18%. For `O=C(OC1CN2CCC1CC2)c1ccc([N+](=O)[O-])cc1` (stereo not drawn), the inhibition of corepressor binding was inactive: 0.82%. For `CC(C)c1ccc(OP(C)(=O)Nc2ccc(SC(F)(F)F)cc2)cc1` (stereo not drawn), the inhibition of corepressor binding was inactive: -3.93%. In the case of `CP(=O)(Nc1ccccc1F)Oc1ccccc1` (stereo not drawn), the inhibition of corepressor binding is reported as inactive: 0.74%. `O=[N+]([O-])c1cc([N+](=O)[O-])c(OC2CCCCC2O)c([N+](=O)[O-])c1` (stereo not drawn) was tested, and the inhibition of corepressor binding was inactive: -2.11%. With `CCCCCOc1ccc(NP(C)(=O)Oc2ccc(Cl)cc2Cl)cc1` (stereo not drawn) the inhibition of corepressor binding was inactive: 0.75%. In the case of `CP(=O)(Nc1ccccc1)Oc1ccc(F)cc1` (stereo not drawn), the inhibition of corepressor binding is reported as inactive: 1.02%. For `CCN(CC)CCCOC(=O)C(O)(c1ccccc1)C1CCCCC1` (stereo not drawn), the inhibition of corepressor binding was inactive: 3.77%. For `COc1ccc(OP(C)(=O)Nc2ccc(SC(F)(F)F)cc2)cc1` (stereo not drawn), the inhibition of corepressor binding was inactive: -2.86%. In the case of `CCOC(=O)c1ccc(NP(C)(=O)Oc2ccc(F)cc2)cc1` (stereo not drawn), the inhibition of corepressor binding is reported as inactive: -4.13%. In the case of `O=[N+]([O-])c1cc([N+](=O)[O-])c(NCC2CCS(=O)(=O)C2)c([N+](=O)[O-])c1` (stereo not drawn), the inhibition of corepressor binding is reported as inactive: 1.23%. For `COc1ccc(NP(C)(=O)Oc2ccccc2OC)cc1` (stereo not drawn), the inhibition of corepressor binding was inactive: -0.69%. `CN(C)CCOC(=O)C(O)(c1ccccc1)C1CCCCC1` (stereo not drawn) was tested, and the inhibition of corepressor binding was inactive: 1.73%. `COc1ccc(OP(C)(=O)Nc2cccc(Br)c2)cc1` (stereo not drawn) was tested, and the inhibition of corepressor binding was inactive: 3.01%. For `Cc1ccccc1NP(C)(=O)Nc1ccccc1C`, the inhibition of corepressor binding was inactive: -1.03%. In the case of `CP(=O)(Nc1ccc2c(c1)OCCO2)Oc1ccccc1` (stereo not drawn), the inhibition of corepressor binding is reported as inactive: -0.3%. For `CCOP(C)(=S)SCC(=O)NC(C)(CC)C(=O)O` (stereo not drawn), the inhibition of corepressor binding was inactive: -1.3%. For `CP(=O)(Nc1ccc(SC(F)(F)F)cc1)Oc1ccc(F)cc1` (stereo not drawn), the inhibition of corepressor binding was inactive: 1.67%. For `Cc1nc2ccc3ccccc3c2s1.O=[N+]([O-])c1cc([N+](=O)[O-])c(O)c([N+](=O)[O-])c1`, the inhibition of corepressor binding was inactive: 7.94%. For `O=[N+]([O-])c1cc([N+](=O)[O-])c(-c2cnn(-c3ccccc3)c2)c([N+](=O)[O-])c1`, the inhibition of corepressor binding was inactive: 4.66%. With `O=[N+]([O-])c1cc([N+](=O)[O-])c(-n2nnc3ccccc32)c([N+](=O)[O-])c1` the inhibition of corepressor binding was inactive: -0.8%. In the case of `CP(=O)(Nc1ccc(SC(F)(F)F)cc1)Oc1ccccc1` (stereo not drawn), the inhibition of corepressor binding is reported as inactive: -0.55%. In the case of `CCCOc1ccc(NP(C)(=O)Oc2ccc(Cl)cc2)cc1` (stereo not drawn), the inhibition of corepressor binding is reported as inactive: -1.67%. In the case of `COc1ccccc1OP(C)(=O)Nc1c(C)cccc1C` (stereo not drawn), the inhibition of corepressor binding is reported as inactive: 4.21%. With `CN1CCCCC1COC(=O)C1(O)c2ccccc2CCc2ccccc21` (stereo not drawn) the inhibition of corepressor binding was inactive: 4.3%. In the case of `CCOC(=O)C(CC)C1=NC(C)(C)Cc2ccccc21.O=[N+]([O-])c1cc([N+](=O)[O-])c(O)c([N+](=O)[O-])c1` (stereo not drawn), the inhibition of corepressor binding is reported as inactive: -2.5%. For `O=[N+]([O-])c1cc([N+](=O)[O-])c(Nc2nnnn2CCO)c([N+](=O)[O-])c1`, the inhibition of corepressor binding was inactive: -0.76%. In the case of `CC1=C2N=C(C=C3N=C(C(C)=C4[N-][C@@](C)([C@@H]5N=C1[C@](C)(CCC(=O)NC[C@@H](C)OP(=O)([O-])O[C@H]1[C@@H](O)[C@@H](n6cnc7cc(C)c(C)cc76)O[C@@H]1CO)[C@H]5CC(N)=O)[C@@](C)(CC(N)=O)[C@@H]4CCC(N)=O)[C@@](C)(CC(N)=O)[C@@H]3CCC(N)=O)C(C)(C)[C@@H]2CCC(N)=O.[C-]#N.[Co+3]`, the inhibition of corepressor binding is reported as inactive: 8.59%. With `CC1=NCCc2c1[nH]c1ccccc21.O=[N+]([O-])c1cc([N+](=O)[O-])c(O)c([N+](=O)[O-])c1` the inhibition of corepressor binding was inactive: -1.44%. For `O=C(O)c1cccc(Nc2c([N+](=O)[O-])cc([N+](=O)[O-])cc2[N+](=O)[O-])c1`, the inhibition of corepressor binding was inactive: 3.13%. With `CP(=O)(Nc1cccc(Br)c1)Oc1ccccc1` (stereo not drawn) the inhibition of corepressor binding was inactive: -3.99%. In the case of `Cc1cc(C)cc(OP(C)(=O)Nc2ccccn2)c1` (stereo not drawn), the inhibition of corepressor binding is reported as inactive: 1.59%. `Cc1ccc(C)c(NP(C)(=O)Oc2ccccc2)c1` (stereo not drawn) was tested, and the inhibition of corepressor binding was inactive: -2.45%. For `Cc1cc(C)cc(OP(C)(=O)Nc2ccc(C)cc2C)c1` (stereo not drawn), the inhibition of corepressor binding was inactive: -1.35%. `CCOC(=O)c1ccc(NP(C)(=O)Oc2cc(C)cc(C)c2)cc1` (stereo not drawn) was tested, and the inhibition of corepressor binding was inactive: 0.43%. `COc1ccccc1OP(C)(=O)Nc1cccc(Br)c1` (stereo not drawn) was tested, and the inhibition of corepressor binding was inactive: 0.08%. For `CCN(CC)CCCOC(=O)C(O)(c1ccccc1)c1ccccc1`, the inhibition of corepressor binding was inactive: 0.7%. In the case of `COc1ccc(OP(C)(=O)Nc2cccc(F)c2)cc1` (stereo not drawn), the inhibition of corepressor binding is reported as inactive: 0.13%. In the case of `COc1ccccc1OP(C)(=O)Nc1cc(Cl)ccc1C` (stereo not drawn), the inhibition of corepressor binding is reported as inactive: 1.67%. With `Cc1cc(C)cc(OP(C)(N)=O)c1` (stereo not drawn) the inhibition of corepressor binding was inactive: 3.1%. `CCOC(=O)c1ccc(NP(C)(=O)Oc2ccccc2)cc1` (stereo not drawn) was tested, and the inhibition of corepressor binding was inactive: -3.24%. With `Cc1ccc(NP(C)(=O)Oc2ccccc2)c(C)c1` (stereo not drawn) the inhibition of corepressor binding was inactive: -4.06%. For `COc1ccccc1OP(C)(=O)Nc1ccc(C)cc1` (stereo not drawn), the inhibition of corepressor binding was inactive: -2.46%. In the case of `Cc1cccc(C)c1OP(C)(N)=O` (stereo not drawn), the inhibition of corepressor binding is reported as inactive: 0.54%. With `CC(C)(C)c1ccc(OP(C)(=O)Nc2ccc(SC(F)(F)F)cc2)cc1` (stereo not drawn) the inhibition of corepressor binding was inactive: -1.42%. In the case of `O=[N+]([O-])c1ccc2c(c1)C=Nc1ccccc1O2`, the inhibition of corepressor binding is reported as inactive: 1.48%. With `O=[N+]([O-])c1cc([N+](=O)[O-])c(Nc2cccnc2)c([N+](=O)[O-])c1` the inhibition of corepressor binding was inactive: 6.41%. `COc1ccccc1OP(C)(=O)Nc1ccccc1` (stereo not drawn) was tested, and the inhibition of corepressor binding was inactive: 0.61%. In the case of `CP(=O)(Nc1ccccc1Br)Oc1ccccc1` (stereo not drawn), the inhibition of corepressor binding is reported as inactive: 2.21%. With `CP(=S)(Nn1cnnc1)Oc1ccccc1` (stereo not drawn) the inhibition of corepressor binding was inactive: -3.24%. `CP(=O)(Nc1ccccn1)Oc1ccc(Cl)cc1` (stereo not drawn) was tested, and the inhibition of corepressor binding was inactive: 0.45%. In the case of `CCOP(C)(=S)SCC(=O)NC(C)C(=O)O` (stereo not drawn), the inhibition of corepressor binding is reported as inactive: 1.97%. In the case of `CCOC(=O)c1ccc(NP(C)(=O)Oc2ccc(OC)cc2)cc1` (stereo not drawn), the inhibition of corepressor binding is reported as inactive: 0.4%. In the case of `O=[N+]([O-])c1cc([N+](=O)[O-])c(O)c([N+](=O)[O-])c1.c1ccc(Oc2ccncc2)cc1`, the inhibition of corepressor binding is reported as inactive: 0.36%. `Cc1cc(C)cc(OP(C)(=O)Nc2ccc(SC(F)(F)F)cc2)c1` (stereo not drawn) was tested, and the inhibition of corepressor binding was inactive: -0.87%. `CCc1ccc(OP(C)(=O)N2CCN(c3ccc([N+](=O)[O-])cc3)CC2)cc1` (stereo not drawn) was tested, and the inhibition of corepressor binding was inactive: -3.21%. With `CP(=O)(NC(=O)Nc1ccccc1)Oc1ccccc1` (stereo not drawn) the inhibition of corepressor binding was inactive: -0.26%. `CP(=O)(Oc1ccccc1)OC(c1ccccc1)C(F)(F)F` (stereo not drawn) was tested, and the inhibition of corepressor binding was inactive: 0.54%. For `Cc1cccc(C)c1OP(C)(=O)Nc1ccc(SC(F)(F)F)cc1` (stereo not drawn), the inhibition of corepressor binding was inactive: 1.01%. `CP(=O)(Nc1ccc(SC(F)(F)F)cc1)Oc1ccc(Cl)cc1` (stereo not drawn) was tested, and the inhibition of corepressor binding was inactive: -0.58%.
